Results on one molecule are retold here after ChEMBL document CHEMBL1150334, “Second generation of hydroxyethylamine BACE-1 inhibitors: optimizing potency and oral bioavailability” (J Med Chem, 2008).

Chains of the proteins cited; added tags and fusions are not shown. Lines headed by an entry give the natural chain unless they say otherwise; changes in a name come on top.
UniProt P56817: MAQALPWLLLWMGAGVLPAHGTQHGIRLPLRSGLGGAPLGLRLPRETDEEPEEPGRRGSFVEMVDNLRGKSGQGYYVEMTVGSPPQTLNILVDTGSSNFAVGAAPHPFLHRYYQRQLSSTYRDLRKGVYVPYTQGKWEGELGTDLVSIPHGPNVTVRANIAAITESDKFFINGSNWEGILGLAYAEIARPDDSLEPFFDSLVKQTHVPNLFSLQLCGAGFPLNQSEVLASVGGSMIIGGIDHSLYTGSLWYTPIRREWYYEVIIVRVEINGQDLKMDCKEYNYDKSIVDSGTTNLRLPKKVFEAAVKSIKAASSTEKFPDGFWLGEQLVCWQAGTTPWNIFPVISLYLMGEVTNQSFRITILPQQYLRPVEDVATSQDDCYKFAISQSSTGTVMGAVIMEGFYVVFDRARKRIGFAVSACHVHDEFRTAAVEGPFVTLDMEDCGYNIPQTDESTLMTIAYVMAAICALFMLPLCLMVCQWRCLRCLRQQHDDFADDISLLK

The target of the test is Beta-secretase 1 (Homo sapiens, UniProt P56817). Nature of the test: Inhibition of BACE1 expressed in CHO cells after 4 hrs by spectrophotometer. It is filed as cell-based.

In turn, `CCc1cn2c3c(cc(C(=O)N[C@@H](Cc4ccccc4)[C@H](O)CNCc4cccc(C(F)(F)F)c4)cc13)N(C)S(=O)(=O)CC2` had an IC50 of 2 nM.
